The term Ki denotes a dissociation constant, usually derived from enzyme kinetics or from competition with a known ligand. The term IC50 denotes the concentration at which inhibition is half-maximal. Read a low IC50 as higher potency.

The source made the active and inactive calls. The calls are words filed in the database; no cut-off is given here.

Assay [1] addresses T1, Aldo-keto reductase family 1 member C1 (Homo sapiens, UniProt Q04828).
T1 sequence (Q04828 whole entry): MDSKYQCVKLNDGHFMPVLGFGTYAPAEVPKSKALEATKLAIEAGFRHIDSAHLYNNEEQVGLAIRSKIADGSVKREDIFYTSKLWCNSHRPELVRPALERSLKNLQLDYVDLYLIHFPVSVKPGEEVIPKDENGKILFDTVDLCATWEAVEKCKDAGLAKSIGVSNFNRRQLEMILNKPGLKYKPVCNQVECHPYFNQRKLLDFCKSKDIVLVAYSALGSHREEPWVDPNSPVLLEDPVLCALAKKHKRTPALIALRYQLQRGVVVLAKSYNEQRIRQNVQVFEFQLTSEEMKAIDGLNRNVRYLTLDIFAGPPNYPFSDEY

Assay [2] has as its target T2, Aldo-keto reductase family 1 member C1 (Homo sapiens) (UniProt Q04828).
T2 sequence (whole entry): T1 sequence (Q04828 whole entry)
As to conditions: 0.1 uM.

For assay [3], the target named is T1, Aldo-keto reductase family 1 member C1. The source holds these as a separate data set.

Consider `O=C(O)c1cc(Br)cc(Br)c1O`, for which the Ki in assay [1] was 0.009 µM. In addition, the outcome in assay [2] was Active. This molecule also registered an IC50 in assay [3] of 2.3 µM.

Values taken from ChEMBL document CHEMBL1138501, “Structure-guided design, synthesis, and evaluation of salicylic acid-based inhibitors targeting a selectivity pocket in the active site of human 20alpha-hydroxysteroid dehydrogenase (AKR1C1)” (J Med Chem, 2009).
